## OPERA 2.9 data: melting point values

Source: data files of OPERA 2.9 (Mansouri et al.), github.com/kmansouri/OPERA.

Melting points are in °C.
Cells with "n/a" have no entry in this list.
"via" names the databases from which the curators took the value.

| MP (°C) | compound | name | via |
|---|---|---|---|
| 112 | Clc1ccc(Cl)c(-c2ccc(Cl)c(Cl)c2Cl)c1 | 2,2',3,4,5'-Pentachlorobiphenyl | QSARDB |
| 220 | CSc1ccc(-c2csc(N)n2)cc1 | 4-[4-(methylthio)phenyl]-1,3-thiazol-2-amine | OCHEM |
| 144 | CCCCCCCCCCOS(=O)(=O)[O-].CCCCCCCCCCOS(=O)(=O)[O-].[Zn+2] | Zinc dodecyl sulfate (1:2) | eChemPortal |
| 74 | O=Cc1ccc(N2CCCCC2)s1 | 5-(Piperidin-1-yl)thiophene-2-carbaldehyde | OCHEM |
| 178 | O=C(O)c1cnn(-c2ccccc2)c1 | Pyrazole-4-carboxylic acid, 1-phenyl- | OCHEM |
| 177 | Cc1ccc(NC(=S)NN)cc1C | n-(3,4-dimethylphenyl)hydrazinecarbothioamide | OCHEM |
| 49 | COc1cc(C=O)cc(Br)c1OCc1ccccc1 | 4-(benzyloxy)-3-bromo-5-methoxybenzaldehyde | OCHEM |
| 200 | CC(C)COC(=O)CC(C(=O)OCC(C)C)S(=O)(=O)[O-].[Na+] (configuration not stated) | Sodium 1,4-diisobutyl sulfosuccinate | eChemPortal |
| 253 | NS(=O)(=O)c1ccc2c(c1)CC(=O)N2 | 2-oxoindoline-5-sulfonamide | OCHEM |
| 232 | Cc1cc(-c2ccccc2)nc2cc(=O)[nH]n12 | 7-methyl-5-phenylpyrazolo[1,5-a]pyrimidin-2-ol | OCHEM |
| 162 | NC(=O)Cc1csc(N)n1 | 2-(2-amino-1,3-thiazol-4-yl)acetamide | OCHEM |
| 154 | CC(C)(C)OC(=O)Nc1ccc(CC(=O)O)cc1 | {4-[(tert-Butoxycarbonyl)amino]phenyl}acetic acid | OCHEM |
| 207 | CC(C)(C)c1ccc(C=CC(=O)O)cc1 | 4-tert-Butylcinnamic acid | OCHEM |
| 186 | CCOc1cc(C(=O)O)c(N)cc1OC | 2-amino-5-ethoxy-4-methoxybenzoic acid | OCHEM |
| 164 | O=C(O)CNC1=NCCCCC1 | N-(3,4,5,6-Tetrahydro-2H-azepin-7-yl)glycine | OCHEM |
| 150 | NC(=O)CC1CCCC1 | 2-Cyclopentylacetamide | OCHEM |
| 215 | COc1ccccc1-c1nc(N)n[nH]1 | 5-(2-Methoxyphenyl)-1H-1,2,4-triazol-3-amine | OCHEM |
| 134 | O=C(c1ccccc1O)N1CCCCC1 | (2-Hydroxyphenyl)(piperidin-1-yl)methanone | OCHEM |
| 120 | CC1CCc2c(sc3ncnc(Cl)c23)C1 (configuration not stated) | n/a | OCHEM |
| 188 | Cc1ccc(C(=O)N(NC(=O)c2ccccc2)C(C)(C)C)cc1 | N'-Benzoyl-4-methyl-N-(2-methyl-2-propanyl)benzohydrazide | OCHEM |
| 113 | O=C(O)CCOc1ccccc1F | 3-(2-fluorophenoxy)propanoic Acid | OCHEM |
| 230 | O=c1[nH]c2cc([N+](=O)[O-])ccc2o1 | 5-Nitro-1,3-benzoxazol-2(3H)-one | OCHEM |
| 203 | N=c1[nH]c(-c2ccccc2)cn1N=Cc1ccccc1 | n/a | OCHEM |
| 153 | O=C(O)CNC(=O)C(F)(F)F | N-(Trifluoroacetyl)aminoacetic acid | OCHEM |
| 154 | Nc1nc(CN2CCCCC2)cs1 | 4-Piperidin-1-ylmethyl-thiazol-2-ylamine | OCHEM |
| 170 | O=C(O)CNC(=O)c1ccc(F)cc1 | n-(4-fluorobenzoyl)glycine | OCHEM |
| 289 | O=C(Nc1ccc(O)c(C(=O)O)c1)c1cc(Cl)cc(Cl)c1 | 5-(3,5-Dichlorobenzamido)-2-hydroxybenzoic acid | OCHEM |
| 305 | O=c1[nH]c2ccc(S(=O)(=O)Cl)cc2[nH]c1=O | 2,3-dioxo-1,2,3,4-tetrahydroquinoxaline-6-sulfonyl chloride | OCHEM |
| 247 | Cc1cc(C(N)=O)c2ccccc2n1 | 2-Methylquinoline-4-carboxamide | OCHEM |
| 51 | CC(C)Oc1ccc(C#N)cc1 | 4-isopropoxybenzonitrile | OCHEM |
| 64 | N#CCC(=O)c1c(Cl)cccc1Cl | 3-(2,6-Dichlorophenyl)-3-oxopropanenitrile | OCHEM |
| 90.5 | COc1ccccc1N1C(=O)C=CC1=O | N-(2-Methoxyphenyl)maleimide | OCHEM |
| 184 | CON=Cc1ccc(C(=O)O)cc1 | Benzoic acid, 4-[(methoxyimino)methyl]- | OCHEM |
| 116 | O=[N+]([O-])c1cccc(-c2nnc(CCl)o2)c1 | 2-(chloromethyl)-5-(3-nitrophenyl)-1,3,4-oxadiazole | OCHEM |
| 185 | Cc1ccc(NC(N)=S)cc1C | (3,4-dimethylphenyl)thiourea | OCHEM |
| 69 | CC(=O)CC(=O)c1ccc(Cl)cc1 | 1-(4-chlorophenyl)butane-1,3-dione | OCHEM |
| 160 | Clc1cc(Cl)c(Cl)c(-c2c(Cl)c(Cl)cc(Cl)c2Cl)c1Cl | 2,2',3,3',5,5',6,6'-Octachlorobiphenyl | QSARDB |
| 78 | CCOC(=O)c1oc2ccccc2c1CBr | Ethyl 3-(bromomethyl)-1-benzofuran-2-carboxylate | OCHEM |
| 99 | Nc1cc([N+](=O)[O-])c(F)cc1F | 2,4-difluoro-5-nitroaniline | OCHEM |
| 112 | CN(C)C=C1C(=O)CCCC1=O | 2-[(Dimethylamino)methylene]-1,3-cyclohexanedione | OCHEM |
| 118 | C(=Cc1ccccn1)c1ccccn1 | n/a | OCHEM |
| 74 | COc1ccc(C2CCC(=O)CC2)cc1 | 4-(4-methoxyphenyl)cyclohexanone | eChemPortal |
| 198 | Cc1ccc2cc(C(=O)O)c(C)nc2c1 | 2,7-Dimethylquinoline-3-carboxylic acid | OCHEM |
| 138.5 | CCCCCCC(O)CCCCCCCCCCC(=O)NCCCCNC(=O)CCCCCCCCCCC(O)CCCCCC (configuration not stated) | n/a | eChemPortal |
| 116.5 | CC1=Nc2ccc3ccccc3c2C1(C)C | 1,1,2-Trimethyl-1H-benzo[e]indole | OCHEM |
| 113.2 | CCOc1ccc(NC(C)=O)cc1[N+](=O)[O-] | 3-Nitro-p-acetophenetide | PubChem |
| 183 | N#Cc1ccccc1OCC(=O)O | 2-(2-cyanophenoxy)acetic acid | OCHEM |

Extract of 7 entries:

{"smiles": "Cc1ccc(NC(N)=S)cc1C", "name": "(3,4-dimethylphenyl)thiourea", "MP (°C)": "185", "via": "OCHEM"}
{"smiles": "NC(=O)CC1CCCC1", "name": "2-Cyclopentylacetamide", "MP (°C)": "150", "via": "OCHEM"}
{"smiles": "N=c1[nH]c(-c2ccccc2)cn1N=Cc1ccccc1", "MP (°C)": "203", "via": "OCHEM"}
{"smiles": "O=C(O)CNC(=O)C(F)(F)F", "name": "N-(Trifluoroacetyl)aminoacetic acid", "MP (°C)": "153", "via": "OCHEM"}
{"smiles": "CC(C)Oc1ccc(C#N)cc1", "name": "4-isopropoxybenzonitrile", "MP (°C)": "51", "via": "OCHEM"}
{"smiles": "O=C(O)CNC(=O)c1ccc(F)cc1", "name": "n-(4-fluorobenzoyl)glycine", "MP (°C)": "170", "via": "OCHEM"}
{"smiles": "CC1=Nc2ccc3ccccc3c2C1(C)C", "name": "1,1,2-Trimethyl-1H-benzo[e]indole", "MP (°C)": "116.5", "via": "OCHEM"}

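The numbers are reported measurements, compiled and curated for the OPERA QSAR suite. A listed value is a point estimate from one report or more. How each value was measured is not recorded, so precision varies. A value may pool stereoisomers or salt forms, and the file does not say which form was measured. Some upstream entries may be estimates or bounds without being marked so.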